# Measurements: patent US10588982B2, “Site-specific covalent chemical ligation to monoclonal and polyclonal immunoglobulin” (The Regents of the University of California, priority 2015, dated 2020)
# Key:
# SKBR3 cells [1] = experiment: Cell viability with TrastDS-MMAE conjugates; assay type: cell-based, human; conditions: high Her2 expression
# MDA-MB-468 cells [2] = experiment: Cell viability with TrastDS-MMAE conjugates; assay type: cell-based, human; conditions: no Her2 expression
# MCF7 cells [3] = experiment: Cell viability with TrastDS-MMAE conjugates; assay type: cell-based, human; conditions: moderate Her2 expression
# MCF7 cells [4] = experiment: Flow cytometry antigen binding; assay type: cell-based; conditions: 40 ng/ml, Cy3-labeled anti-human IgG Fc secondary antibody
# Method: (§1) 10×10^5 cells (SKBR-3, MCF7, and MDA-MB-468) were plated. Trastuzumab-peptide crosslinker was prepared as previously mentioned. Trastuzumab-peptide conjugate and/or biotinylated MMAE were then conjugated to avidin at 1:3, 2:2, and 3:1 molar ratio. Cells were dosed with 40 ng/mL modified or naked antibodies for 2 hours at 37° C. Cells were trypsinized, washed with PBS, and incubated with anti-human IgG Fe Cy3 secondary antibody (Thermo, Waltham, Mass.) for 1 hour on ice in the dark. Cells were then washed with cold PBS and resuspended for flow cytometry analysis using a FACScan system (Becton Dickinson, San Jose, Calif.).
# (§2) The site-specific ligation of a nucleotide binding pocket ligand targeting moiety in combination with a peptide affinity element containing linker and a cross-linking agent has broad utility. For example, cytotoxins can be easily conjugated to the C-terminus of the peptide affinity element, e.g., directly or through one or more ethylene glycol linker moieties, for the production of ADCs. As another example, ligands can be easily conjugated to the C-terminus of the peptide affinity element, e.g., directly or through one or more ethylene glycol linker moieties, to create bispecific antibodies. […] Conjugation of a compound to the NBP which has close proximity of to the antigen binding site is a cause of concern. This proximity has the potential to affect the antigen binding ability. We tested the Trast-DS conjugate for binding to SKBR3, MCF7, and MDA-MB-468 cells. […] (FIG. 9a-c). […] TrastDS-MMAE, an immunotoxin generated through our conjugation method also retained the antigen binding ability (FIG. 9d-f).
# SKBR3 cells [5] = experiment: Flow cytometry antigen binding; assay type: cell-based; conditions: 40 ng/ml, Cy3-labeled anti-human IgG Fc secondary antibody
# Method: as §1, §2
# MDA-MB-468 cells [6] = experiment: Flow cytometry antigen binding; assay type: cell-based; conditions: 40 ng/ml, Cy3-labeled anti-human IgG Fc secondary antibody
# Method: as §1, §2
# SKBR-3 cells = experiment: Flow cytometry bispecific binding (SAPE); assay type: cell-based, human; conditions: 750 μM (LLP2A 250 μM), 1 hr
# Method: (§3) FIG. 11. Bispecific binding abilities for both Her2 and α4β1 integrin are shown. Biotinylated DS peptide was conjugated to trastuzumab creating trast-DS. Trast-DS was dialyzed and crosslinked at pH 8.5. 3:1 ratio of trast-DS to biotinylated LLP2A was bound to streptavidin-PE (SAPE). Controls (trast-DS only and LLP2A only) were conjugated to SAPE at a 4:1 molar ratio. 750 μM trast-DS, 750 μM trast-DS: LLP2A, 250 μM LLP2a were incubated with SKBR-3 human mammary gland/breast adenocarcinoma (A) and Jurkat human T lymphocyte (B) cells for 1 hour. Cells were run through flow cytometry to quantify cells.
# (§4) 3×10^4 cells (SKBR-3 and Jurkat) were plated in a 48 well plate. Trastuzumab-peptide crosslinker was prepared as previously mentioned. Trastuzumab-peptide conjugate and/or biotinylated. LLP2A were then conjugated to SAPE at 4:1 molar ratio. The bispecific samples were conjugated at 3:1:1 molar ratio (trastuzumab-peptide:LLP2A:SAPE). Cells were dosed with (1) 750 nM Trastuzumab-peptide, (2) 250 nM LLP2A, or (3) 750 nM Trastuzumab-peptide/LLP2A conjugate for 1 hr. SKBR-3 cells were trypsinized; Jurkat cells were removed. All cells were washed with cold PBS and resuspended in PBS for flow cytometry analysis using the FACScan system (Becton Dickinson, San Jose, Calif.). […]
# Jurkat cells = experiment: Flow cytometry bispecific binding (SAPE); assay type: cell-based, human; conditions: 750 μM (LLP2A 250 μM), 1 hr
# Method: as §3, §4
# [7] = listed as TrastDS conjugated with MMAE
Substance,cell viability (SKBR3 cells [1]),cell viability (SKBR3 cells [1]; [7]),cell viability (MDA-MB-468 cells [2]),cell viability (MDA-MB-468 cells [2]; [7]),cell viability (MCF7 cells [3]),cell viability (MCF7 cells [3]; [7]),binding to cells (MCF7 cells [4]),binding to cells (SKBR3 cells [5]),binding to cells (MDA-MB-468 cells [6]),binding to cells (SKBR-3 cells),binding to cells (Jurkat cells)
TrastDS-MMAE,decreased cell viability in a dose dependent manner,decreased in cell viability,not significantly affected,not as pronounced,decreased cell viability in a dose dependent manner,decreased in cell viability,did not affect binding affinity,did not affect binding affinity,No binding,–,–
TrastDS/LLP2A,–,–,–,–,–,–,–,–,–,No loss of affinity,some binding affinity was lost
"Trastuzumab: model monoclonal antibody, anti-Her2 [reference compound]",–,–,–,–,–,–,–,–,No binding,–,–
